The list shows a part of the results, in another mix than the full data. Some tests of the compounds listed are not included; inactive here does not mean inactive elsewhere. Calls of active or inactive are those of the source. Cut-off read from the data, not from the text of the source: active = inhibition above about 30%; inactive = the rest, inconclusive results apart.
Test: inhibitors of arbovirus infection in cells – cell-based, full library, 10K replicate subset, primary screen (AID 1251)
Settings: arbovirus infection cell-based antiviral screen; at 10 µM; hits give high values
In the case of `C=CCN1CCN(CCOC(=O)C(O)(c2ccccc2)c2ccccc2)CC1`, the inhibition is reported as inactive: 1.13%.
In the case of `CCN1CCCC(OC(=O)C2(O)c3ccccc3C=Cc3ccccc32)C1` (centres undefined), the inhibition is reported as inactive: 13.9%.
In the case of `Cc1ccccc1C(=O)NCC1(N2CCCCC2)CCCCC1`, the inhibition is reported as inactive: 10.1%.
With `CN(C)C1CCCC1OC(=O)C(O)(c1ccccc1)c1ccccc1` (centres undefined) the inhibition was inactive: -6.94%.
For `CC(C)N1C(=O)CC2(CCN(CCOC(=O)C(O)(c3ccccc3)c3ccccc3)CC2)C1=O`, the inhibition was inactive: 5.34%.
In the case of `O=C(NCC1(N2CCCCC2)CCCCC1)c1cc([N+](=O)[O-])ccc1Cl`, the inhibition is reported as inactive: -1.95%.
For `CN(C)c1cccc(C(=O)NCC2(N(C)C)CCCCC2)c1`, the inhibition was inactive: -2.59%.
In the case of `O=C(OC1CN2CCC1CC2)C(CO)(c1ccccc1)c1ccccc1` (centres undefined), the inhibition is reported as inactive: 9.99%.
In the case of `COc1cccc(C(=O)NCC2(N3CCCCC3)CCCCC2)c1`, the inhibition is reported as inactive: 13.1%.
